According to patent US20260152502A1, “PIPERIDINYL-METHYL-PURINE AMINE SALTS, CRYSTALLINE FORMS, AND THEIR USE IN TREATING MEDICAL DISEASES AND CONDITIONS” (K36 THERAPEUTICS, INC., priority 2022, published 2026):

Test: water solubility of the crystalline solid
Format: physicochemical
Conditions: for water solubility (mg/mL of the free base (S)-1-((R)-3-amino-1-(...)piperidin-3-yl)-2,2-difluoroethan-1-ol): pH 7.0 (phosphate buffer), 37° C.; for water solubility: pH 6.8, 37° C.

Row | Substance | water solubility (mg/mL of the free base (S)-1-((R)-3-amino-1-(...)piperidin-3-yl)-2,2-difluoroethan-1-ol) (after 30 minutes) [mg/mL] | water solubility (after 30 minutes) [µg/mL] | water solubility (after 24 hours) [µg/mL]
1 | Benzenesulfonic Acid Salt of (S)-1-((R)-3-amino-1-(4-((6-amino-9H-purin-9-yl)methyl)-6-(2,5-difluoro-4-methoxyphenyl)pyridin-3-yl)piperidin-3-yl)-2,2-difluoroethan-1-ol [Example 2] | 1.49 | – | –
2 | D-Gluconic Acid Salt of (S)-1-((R)-3-amino-1-(4-((6-amino-9H-purin-9-yl)methyl)-6-(2,5-difluoro-4-methoxyphenyl)pyridin-3-yl)piperidin-3-yl)-2,2-difluoroethan-1-ol [Example 7] | 0.53 | – | –
3 | L-Aspartic Acid Salt of (S)-1-((R)-3-amino-1-(4-((6-amino-9H-purin-9-yl)methyl)-6-(2,5-difluoro-4-methoxyphenyl)pyridin-3-yl)piperidin-3-yl)-2,2-difluoroethan-1-ol [Example 11] | 0.98 | – | –
4 | Maleic Acid Salt of (S)-1-((R)-3-amino-1-(4-((6-amino-9H-purin-9-yl)methyl)-6-(2,5-difluoro-4-methoxyphenyl)pyridin-3-yl)piperidin-3-yl)-2,2-difluoroethan-1-ol [Example 1] | – | 870 | > 2000
5 | Phosphoric Acid Salt of (S)-1-((R)-3-amino-1-(4-((6-amino-9H-purin-9-yl)methyl)-6-(2,5-difluoro-4-methoxyphenyl)pyridin-3-yl)piperidin-3-yl)-2,2-difluoroethan-1-ol [Example 9] | > 2.0 | – | –
6 | Phosphoric Acid Salt of (S)-1-((R)-3-amino-1-(4-((6-amino-9H-purin-9-yl)methyl)-6-(2,5-difluoro-4-methoxyphenyl)pyridin-3-yl)piperidin-3-yl)-2,2-difluoroethan-1-ol [Example 10] | 0.28 | – | –
